{
  "sequences": {"note": "Protein sequences, listed by entry. Tags and fused reporters are not part of them.", "UniProt P21397, whole entry": "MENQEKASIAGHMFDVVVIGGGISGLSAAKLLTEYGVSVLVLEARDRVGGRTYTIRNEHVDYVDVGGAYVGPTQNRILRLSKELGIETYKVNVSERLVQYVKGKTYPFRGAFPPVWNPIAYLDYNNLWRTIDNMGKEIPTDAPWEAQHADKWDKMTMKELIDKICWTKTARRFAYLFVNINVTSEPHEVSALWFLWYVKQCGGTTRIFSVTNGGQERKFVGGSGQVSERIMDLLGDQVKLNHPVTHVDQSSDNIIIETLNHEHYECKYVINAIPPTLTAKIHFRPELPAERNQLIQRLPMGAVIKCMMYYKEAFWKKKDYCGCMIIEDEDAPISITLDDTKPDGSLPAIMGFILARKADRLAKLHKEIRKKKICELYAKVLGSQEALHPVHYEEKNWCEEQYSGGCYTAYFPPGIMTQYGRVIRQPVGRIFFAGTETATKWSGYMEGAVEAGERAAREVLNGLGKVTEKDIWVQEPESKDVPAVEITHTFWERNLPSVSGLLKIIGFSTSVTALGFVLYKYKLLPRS", "UniProt P27338, whole entry": "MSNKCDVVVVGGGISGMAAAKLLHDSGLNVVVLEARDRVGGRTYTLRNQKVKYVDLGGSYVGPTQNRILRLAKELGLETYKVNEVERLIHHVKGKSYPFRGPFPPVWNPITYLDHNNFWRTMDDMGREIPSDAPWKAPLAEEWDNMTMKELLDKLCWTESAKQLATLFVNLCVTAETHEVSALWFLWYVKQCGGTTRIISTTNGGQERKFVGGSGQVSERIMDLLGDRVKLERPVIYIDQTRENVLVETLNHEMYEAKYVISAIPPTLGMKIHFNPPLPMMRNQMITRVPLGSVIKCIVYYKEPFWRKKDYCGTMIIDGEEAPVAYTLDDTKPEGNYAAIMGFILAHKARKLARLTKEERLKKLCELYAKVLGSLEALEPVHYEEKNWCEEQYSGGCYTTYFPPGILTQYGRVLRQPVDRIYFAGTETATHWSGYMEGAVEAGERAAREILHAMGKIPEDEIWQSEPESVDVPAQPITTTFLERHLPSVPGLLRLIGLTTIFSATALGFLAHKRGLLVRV"},
  "source": "patent US8524717B2",
  "about": "“Oxidase inhibitors and their use” (Oryzon Genomics, S.A., priority 2008, dated 2013)",
  "note": "pKi: −log10 of the molar value. Counter-ions that a name gives are not always drawn.",
  "data": [
    {"target": "MAO-A (Homo sapiens (Human), UniProt P21397)", "assay": "Monoamine oxidase assay (kynuramine to 4-hydroxyquinoline fluorescence), MAO-A", "format": "biochemical", "settings": "Table 1", "values": [
      {"smiles": "CC(C)(C)NC(=O)CN[C@H]1C[C@@H]1c1ccccc1", "note": "(relative stereo) [Example 6, N-(tert-butyl)-2-{[(trans)-2-phenylcyclopropyl]amino}acetamide]", "pKi": "< 4.30"},
      {"smiles": "O=C(CN[C@H]1C[C@@H]1c1ccc(OCc2ccccc2)cc1)NC1CC1", "note": "(relative stereo) [Example 27, 2-((trans)-2-(4-(benzyloxy)phenyl)cyclopropylamino)-N-cyclopropylacetamide]", "pKi": 5.35},
      {"smiles": "CN1CCN(C(=O)CN[C@H]2C[C@@H]2c2ccc(OCCc3ccccc3)cc2)CC1", "note": "(relative stereo) [Example 34, 1-(4-methylpiperazin-1-yl)-2-((trans)-2-(4-phenethoxyphenyl)cyclopropylamino)ethanone]", "pKi": 4.41},
      {"smiles": "CN1CCN(C(=O)CN[C@H]2C[C@@H]2c2ccc(-c3cc(Cl)cc(Cl)c3)cc2)CC1", "note": "(relative stereo) [Example 45, 2-((trans)-2-(3′,5′-dichlorobiphenyl-4-yl)cyclopropylamino)-1-(4-methylpiperazin-1-yl)ethanone dihydrochloride]", "pKi": 5.07},
      {"smiles": "CN1CCN(C(=O)CN[C@H]2C[C@@H]2c2ccc(-c3ccccc3C(F)(F)F)cc2)CC1", "note": "(relative stereo) [Example 50, 1-(4-methylpiperazin-1-yl)-2-((trans)-2-(2′-(trifluoromethyl)biphenyl-4-yl)cyclopropylamino)ethanone dihydrochloride]", "pKi": 4.60}
    ]},
    {"target": "MAO-B (Homo sapiens (Human), UniProt P27338)", "assay": "Monoamine oxidase assay (kynuramine to 4-hydroxyquinoline fluorescence), MAO-B", "format": "biochemical", "settings": "Table 1", "values": [
      {"smiles": "CN1CCN(C(=O)CN[C@H]2C[C@@H]2c2ccc(-c3ccc(F)cc3)cc2)CC1", "note": "(relative stereo)", "pKi": 4.39},
      {"smiles": "CN1CCN(C(=O)CN[C@H]2C[C@@H]2c2ccccc2)CC1", "note": "(relative stereo) [Example 22, 1-(4-methylpiperazin-1-yl)-2-((trans)-2-phenylcyclopropylamino)ethanone]", "pKi": 4.51},
      {"smiles": "O=C(CN[C@H]1C[C@@H]1c1ccc(OCc2ccccc2)cc1)NC1CC1", "note": "(relative stereo) [Example 27, 2-((trans)-2-(4-(benzyloxy)phenyl)cyclopropylamino)-N-cyclopropylacetamide]", "pKi": 5.90},
      {"smiles": "CN1CCN(C(=O)CN[C@H]2C[C@@H]2c2ccc(OCCc3ccccc3)cc2)CC1", "note": "(relative stereo) [Example 34, 1-(4-methylpiperazin-1-yl)-2-((trans)-2-(4-phenethoxyphenyl)cyclopropylamino)ethanone]", "pKi": 4.61},
      {"smiles": "CN1CCN(C(=O)CN[C@H]2C[C@@H]2c2ccc(-c3cccc(C#N)c3)cc2)CC1", "note": "(relative stereo) [Example 40, 4′-((trans)-2-(2-(4-methylpiperazin-1-yl)-2-oxoethylamino)cyclopropyl)biphenyl-3-carbonitrile dihydrochloride]", "pKi": 4.74},
      {"smiles": "CN1CCN(C(=O)CN[C@H]2C[C@@H]2c2ccc(-c3cccc(C(F)(F)F)c3)cc2)CC1", "note": "(relative stereo) [Example 43, 1-(4-methylpiperazin-1-yl)-2-((trans)-2-(3′-(trifluoromethyl)biphenyl-4-yl)cyclopropylamino)ethanone dihydrochloride]", "pKi": 4.58},
      {"smiles": "CN1CCN(C(=O)CN[C@H]2C[C@@H]2c2ccc(C3CC3)cc2)CC1", "note": "(relative stereo) [Example 60, 2-((trans)-2-(4-cyclopropylphenyl)cyclopropylamino)-1-(4-methylpiperazin-1-yl)ethanone dihydrochloride]", "pKi": 4.38}
    ]}
  ]
}
